{
  "source": "patent US7700654B2",
  "about": "(LTS Lohmann Therapie-Systeme AG, priority 2005, dated 2010)",
  "tested_on": "LNCaP cells",
  "experiment": "growth inhibition of human prostate carcinoma cells (cell counting)",
  "format": "cell-based",
  "conditions": "for proliferation of LNCaP cells versus untreated cells (FIG. 4): 100 μM",
  "text": "The growth of prostate cells and prostate cancer cells is originally dependent on androgens.\nThe cells were trypsinized and counted using a counting cell chamber on the indicated days.",
  "data": [
    {"smiles": "CCCCNS(=O)(=O)c1ccccc1", "note": "[NBBS, N-butylbenzenesulfonamide]", "values": [
      {"measurement": "growth of LNCaP cells (FIG. 4)", "setting": "10 μM, day 8 of treatment", "value": "reduced growth"},
      {"measurement": "proliferation of LNCaP cells versus untreated cells (FIG. 4)", "setting": "day 5 of treatment", "value": "markedly slower proliferation than the untreated cells"},
      {"measurement": "proliferation of LNCaP cells versus untreated cells (FIG. 4)", "setting": "day 8 of treatment", "value": "even more prominent"}
    ]}
  ]
}
